Values quoted from earlier work as cited in patent US20080287669A1, “METHODS AND COMPOSITIONS FOR IDENTIFYING COMPOUNDS USEFUL IN NUCLEIC ACID PURIFICATION” (priority 2007, published 2008).

Details: Table 3, miscible organic solvents

OCCN(CCO)CCO
Dielectric Constant (DC): 29.36

Some compounds may have been tested in ways that are not shown here.
